Results as given in PubChem BioAssay AID651718 (The Scripps Research Institute Molecular Screening Center, 2012).
The entries are a selection whose mix differs from that of the whole data set. Activity calls are given as the source filed them. No stated cut-off is given here; in the data, active means inhibition above about 4.5%; inactive means the rest.

test system: Methionine sulfoxide reductase A (Bos taurus); assay: inhibition of methionine sulfoxide reductase A – biochemical, absorbance, bovine, HTS, primary screen (AID 651718); conditions: purified bovine MsrA, absorbance read-out; at 15.5 µM; stronger effect = higher value;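 further: 0% = vehicle wells with enzyme and 100% = reference inhibitor wells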

Row | Compound | inhibition
1 | CN(C(=O)Cc1ccccc1)C1CC[C@@]2(CCCO2)C[C@@H]1N1CCCC1 (stereo partly drawn) | inactive: -0.18%
2 | CCn1c(=O)n(C2CCN(CC3CCCCCCC3)C[C@H]2CO)c2ccccc21 (stereo partly drawn) | inactive: -0.55%
3 | Cc1ccc(NP(=O)(Oc2ccccc2F)Oc2ccccc2F)nc1 | inactive: -1.05%
4 | CN(C(=O)Cc1ccc(Cl)c(Cl)c1)[C@H]1CCCC[C@@H]1N1CCCC1 | inactive: 1.39%
5 | Cc1cc(SC(NC(=O)c2ccc(F)cc2)C(Cl)(Cl)Cl)ncn1 (stereo not drawn) | inactive: 0.48%
6 | CCOP(=O)(Nc1ccccc1)OCC | inactive: 0.34%
7 | O=P(Nc1nc2ccc(Cl)cc2s1)(c1ccccc1)c1ccccc1 | inactive: -0.26%
8 | CN(C)P(=O)(N(C)C)n1c(Nc2ccccc2)nnc1-c1ccccc1 | inactive: -0.79%
9 | CCCC1OP(N)(=O)OCC1CC (stereo not drawn) | inactive: 0.58%
10 | CC(=O)Nc1ccc([As](=O)(O)O)cc1 | inactive: 1.37%
11 | O=C(O)c1ccccc1[As](=O)(O)O | active: 81.7%
12 | O=C(NC(Sc1ccncn1)C(Cl)(Cl)Cl)c1ccccc1 (stereo not drawn) | inactive: 1.32%
13 | Oc1ccccc1CNc1ccccn1 | inactive: 0.77%
14 | Nc1cc(N)c2nonc2c1[N+](=O)[O-] | inactive: 0.57%
15 | CC(C)CC(=O)NC(Sc1ccc(Cl)cc1)C(Cl)(Cl)Cl (stereo not drawn) | inactive: 0.78%
16 | CN1CCCC(OC(=O)C(c2ccccc2)c2ccccc2)C1 (stereo not drawn) | inactive: -0.3%
17 | Clc1ccc(Cl)c(NC2=NCC(CBr)S2)c1 (stereo not drawn) | inactive: 2.73%
18 | Cc1ccc(OP(=O)(Nc2nccs2)Oc2ccc(C)cc2)cc1 | inactive: 1.66%
19 | COc1ccccc1OP(=O)(Nc1ccc(C)cn1)Oc1ccccc1OC | inactive: 2.05%
20 | Cc1ccc(N/C(=N/P(=O)(N2CCOCC2)N2CCOCC2)N2CCOCC2)cc1 | inactive: -0.23%
21 | CN(C(=O)Cc1ccc(Cl)c(Cl)c1)[C@H]1CCCC[C@H]1N1CCCC1 | inactive: 0.73%
22 | NC(=O)c1cc([N+](=O)[O-])cc([N+](=O)[O-])c1N | inactive: 2.26%
23 | O=[N+]([O-])c1cc(Oc2ccc([N+](=O)[O-])cc2C(F)(F)F)cc([N+](=O)[O-])c1 | inactive: 1.17%
24 | COc1ccc(N/C(=N/P(=O)(N2CCOCC2)N2CCOCC2)N2CCOCC2)cc1 | inactive: 2.32%
25 | O=P1(N(CCCl)CCCl)Nc2ccccc2N1 | inactive: 2.62%
26 | O=P1(N(CCCl)CCCl)OCCCN1CCCl (stereo not drawn) | inactive: -1%
27 | COc1cc(I)ccc1[As](=O)(O)O | inactive: -0.66%
28 | COc1ccc2nc(NP(=O)(c3ccccc3)c3ccccc3)sc2c1 | inactive: 0.17%
